# Ab-14 light chain CDR variants: yeast mating affinities

The measurements come from Engelhart et al. 2022 (doi:10.1038/s41597-022-01779-4) through the FLAb antibody collection.

All variants were tested on one target, the spike HR2 peptide PDVDLGDISGINAS (SARS-CoV-2).

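The parent was found by panning a naive human phage display library on the peptide. Library AAYL50 holds single substitutions and randomly drawn double and triple substitutions in the CDRs. In AlphaSeq, yeast of one mating type display the scFv and yeast of the other type display the target. Binding brings cells together so that they mate, and sequencing counts the barcode pairs among the diploids. A regression on co-assayed BCL2-family reference pairs converts the normalised counts of each replicate to an apparent Kd. Each pool was mated in three replicate cultures.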

The variants keep the heavy chain, the linker and the frameworks of Ab-14 (scFv order VH, a (GGGGS)3 linker, VL).
VH: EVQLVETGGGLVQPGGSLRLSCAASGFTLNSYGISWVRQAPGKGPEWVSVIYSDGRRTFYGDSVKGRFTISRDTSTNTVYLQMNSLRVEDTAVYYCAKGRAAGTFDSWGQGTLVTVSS
VL: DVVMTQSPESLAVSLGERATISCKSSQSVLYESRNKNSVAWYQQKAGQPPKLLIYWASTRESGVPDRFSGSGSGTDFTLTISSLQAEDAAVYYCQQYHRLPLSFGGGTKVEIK

The parent's light chain CDRs are KSSQSVLYESRNKNSVA, WASTRES, QQYHRLPLS; each variant's own CDRs replace them letter for letter.
Every variant below is changed at R99 of the VL (sequential numbering).
Values are apparent Kd, the geometric mean of the replicates that gave a signal; lower means stronger binding.
An entry "no signal" has no value in the source: the pair was not observed among the diploids in any replicate. This suggests poor binding but is not conclusive.
For reference, the parent read 4.4 nM as the reference entry and 48 nM as a member of this library.
Three control strains display no target. For library AAYL50, 18% of the pairings with them gave a signal, with a median of 15 µM and one signal in twenty below 970 nM, so weak values seen in few replicates may be background. Also given: how often the same scFv was detected with the empty control strains.

For KSDQSVLYESRNKNSVA | WASTRES | QQYHWNPLS, the assay gave no signal (0 of 3 replicates; controls 0 of 9).
For KNSQSVLYESRNKNSVA | WASTRES | QQYHKPPLS, the assay gave no signal (0 of 3 replicates; controls 0 of 9).
For KSSQSVLYESRNKNSVA | WASTRES | QWYHSIPLS, the assay gave 1.2 µM (1 of 3 replicates; controls 1 of 9).
For LSSQSVLYESRNKNSVA | WASTRES | DQYHALPLS, the assay gave no signal (0 of 3 replicates; controls 0 of 9).
For KSSQSVLYESRNKNSVA | WASTIES | QQQHFLPLS, the assay gave 23 µM (2 of 3 replicates; controls 4 of 9).
For KSSQSVLYESRNKASVA | WASTRES | QQYHLLPLN, the assay gave no signal (0 of 3 replicates; controls 0 of 9).
For KSSQSVLYESRNAMSVA | WASTRES | QQYHDLPLS, the assay gave 81 nM (3 of 3 replicates; controls 0 of 9).
For KSSQSVLYESRNWNSVA | WASTRES | LQYHWLPLS, the assay gave 23 µM (3 of 3 replicates; controls 2 of 9).
For KSSMSVLYESRYKNSVA | WASTRES | QQYHPLPLS, the assay gave no signal (0 of 3 replicates; controls 0 of 9).
For KSSQSVLYESRNKNSVA | WASTPES | QQYHNLPLR, the assay gave 1.1 µM (1 of 3 replicates; controls 0 of 9).
For KSSQSVLYEHRNKNSVA | WASTRES | QQYHALPLS, the assay gave 91 nM (3 of 3 replicates; controls 4 of 9).
For KSSQSELYESRNKHSVA | WASTRES | QQYHGLPLS, the assay gave 76 nM (1 of 3 replicates; controls 0 of 9).
For KSSQSVLYESRNKVSVA | WASTRES | QQYHVAPLS, the assay gave 11 µM (2 of 3 replicates; controls 3 of 9).
For KSSQSVLYESRNKNSVA | WLSTRES | QQYHPLPLS, the assay gave no signal (0 of 3 replicates; controls 1 of 9).
For KSSQSVLYESRNKNSVA | WASTRES | QQYHNQPWS, the assay gave 59 µM (3 of 3 replicates; controls 6 of 9).
For KSSQSVLYESRNKNSVA | WASTRES | QQIHQLPLS, the assay gave 58 nM (3 of 3 replicates; controls 2 of 9).
For KSSQSVLYESRNKNSVA | WASTRES | WQYHGLKLS, the assay gave no signal (0 of 3 replicates; controls 1 of 9).
For KSSQSVLYESRNKNSVA | WASTRES | QQYHALCLS, the assay gave no signal (0 of 3 replicates; controls 0 of 9).
For KSSQSVLYESFNKNSVA | WASTREQ | QQYHALPLS, the assay gave no signal (0 of 3 replicates; controls 0 of 9).
For KSSQSVRYESRNKNSVA | WASTRES | QCYHVLPLS, the assay gave 97 nM (3 of 3 replicates; controls 1 of 9).
For KSSQSVAYESRNKNSVP | WASTRES | QQYHFLPLS, the assay gave no signal (0 of 3 replicates; controls 3 of 9).
For KSSQSVLYESRLKNSVA | WASTRES | QQYHHQPLS, the assay gave 610 µM (1 of 3 replicates; controls 4 of 9).
For KSSQSVLYESRNKNSTA | WASTRES | QNYHQLPLS, the assay gave 2.8 µM (3 of 3 replicates; controls 4 of 9).
For KSSQSVLYLSRNKNSVA | WASRRES | QQYHVLPLS, the assay gave 2.2 µM (2 of 3 replicates; controls 2 of 9).
For KSSQSVLKESRNKNAVA | WASTRES | QQYHALPLS, the assay gave 73 nM (3 of 3 replicates; controls 0 of 9).
For KSSQSVLDESRNKNSVA | AASTRES | QQYHKLPLS, the assay gave 780 pM (3 of 3 replicates; controls 5 of 9).
For KSSISVLKESRNKNSVA | WASTRES | QQYHVLPLS, the assay gave 2.4 µM (1 of 3 replicates; controls 0 of 9).
For KSSKSVLYESRNKNSVA | WAKTRES | QQYHPLPLS, the assay gave no signal (0 of 3 replicates; controls 1 of 9).
For KFSQKVLYESRNKNSVA | WASTRES | QQYHGLPLS, the assay gave 4.7 nM (3 of 3 replicates; controls 3 of 9).
For KSSQSVLYESSNKNSVA | WASTRES | QQYMLLPLS, the assay gave 18 nM (3 of 3 replicates; controls 0 of 9).
For KSSQSVNYESRNKNSVA | WASTRES | KQYHNLPLS, the assay gave 7.2 nM (3 of 3 replicates; controls 1 of 9).
For KSSQSVLYESRNKNSVA | WASTRES | QQYHLLPLS, the assay gave 13 nM (3 of 3 replicates; controls 3 of 9).
For KSSQSPLYESRNKNSVA | WASTRES | QQVHPLPLS, the assay gave 250 nM (3 of 3 replicates; controls 2 of 9).
For KSSQSVLYESRNKNSVA | WASTREL | QQYHHLHLS, the assay gave 13 µM (1 of 3 replicates; controls 0 of 9).
For KSSCSVLYESRNKNVVA | WASTRES | QQYHALPLS, the assay gave no signal (0 of 3 replicates; controls 0 of 9).
For KSSQMVLYESINKNSVA | WASTRES | QQYHALPLS, the assay gave 29 nM (3 of 3 replicates; controls 3 of 9).
For KSSMSVLYESRNKNDVA | WASTRES | QQYHALPLS, the assay gave 70 nM (3 of 3 replicates; controls 0 of 9).
For KSSQSVLYESRNKNSVA | WRSRRES | QQYHALPLS, the assay gave 1.8 µM (1 of 3 replicates; controls 0 of 9).
For KSSYSVKYESRNKNSVA | WASTRES | QQYHNLPLS, the assay gave 95 nM (3 of 3 replicates; controls 0 of 9).
For KSAQSVLYEFRNKNSVA | WASTRES | QQYHLLPLS, the assay gave 11 µM (2 of 3 replicates; controls 1 of 9).
For KSVQSVLYESRNKNSVA | WASTRES | QQYCWLPLS, the assay gave 2.9 µM (3 of 3 replicates; controls 5 of 9).
For KSSQSVLYESRNKNKVA | WASTKES | QQYHDLPLS, the assay gave no signal (0 of 3 replicates; controls 1 of 9).

From the list, the first 2 with no signal in any replicate:

| CDR-L1 | CDR-L2 | CDR-L3 | Kd | detected | empty controls |
|---|---|---|---|---|---|
| KSDQSVLYESRNKNSVA | WASTRES | QQYHWNPLS | no signal | 0/3 | 0/9 |
| KNSQSVLYESRNKNSVA | WASTRES | QQYHKPPLS | no signal | 0/3 | 0/9 |